The entries are a selection whose mix differs from that of the whole data set. Inconclusive results are not listed. Active and inactive are the calls of the source.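 How the source made its calls: active means viability at or below 27.92% in each of two runs, the all-compound median minus 4 SD; inconclusive means no clear call, values can overlap the other calls; inactive means the rest.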
Experiment: viability of PTEN-null HCT116 cells – cell-based, HCT116 clonal line, CellTiter-Glo, pilot screen (AID 824);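 further: 0% = 20 µM Hyamine control and 100% = vehicle cell control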
Details: HCT116 PTEN-deleted viability, 60 h, at 10 µM, hits give low values

| Compound | viability |
| --- | --- |
| COC(=O)c1cc2c(s1)N=C(c1ccccc1)N(C)P2(=O)N1CCOCC1 (stereo unspecified) | inactive: 93.8% |
